Assay outcomes as filed in PubChem BioAssay.
Epigenetic reg = derepresses silenced GFP reporter in murine cells; murine LDR cells, GFP reporter derepression, 30 h; Potency, µM (titrated, usually from 53.9 µM), without a hit: at the highest dose GFP activation, actives largely listed as activators; 0.2% of 280,000 active; AID 1865; also: potency is read from the fitted curve at half-maximal effect; % of control where 0% means no effect; nearly all actives have a fitted effect of over 60% in size
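In this reporter-derepression format, murine cells bearing a silenced integrated CMV-GFP locus incubate with test compound (30 h, 37 C), then are washed and imaged; fluorescent objects of 20–120 um count as induced cells.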
miR-21 reporter = miR-21 reporter, rising signal; HeLa miR-21 FLuc reporter, luciferase, 48 h; Potency, µM (titrated, usually from 38.3 µM), for the others: at the top dose reporter change, positive = more light; 340,000 tested, under 10 active; AID 2288; active = well fitted rising curve with a large enough effect; inconclusive = small, poorly fitted or top-dose-only effect; inactive = no such curve, though single readings can be large or run the other way;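 also: % of control where 0% means no effect; miR-21 action dims this reporter so a rising signal means less miR-21 action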
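HeLa cells endogenously expressing miR-21, stably carrying CMV-driven firefly luciferase with a downstream miR-21 binding site, 2000 cells/well. Titrations up to approximately 40 uM, 48 hours; luciferase luminescence read.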
Vif-A3F inh = Vif-A3F binding inhibition. HeLa A3F-eYFP + Vif (tagged APOBEC3F with the HIV-1 protein that degrades it), YFP fluorescence increase. Potency, µM (series often up to 46.1 µM), inactives show at the top dose activity, negative = active. 0.2% of 390,000 active; also: potency is read from the fitted curve at half-maximal effect; % of control where 0% means no effect; nearly all actives have a fitted effect of over 65% in size
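Fluorescence increase (Ex 488/Em 500-530) after overnight compound treatment at 37 deg C flags inhibition of Vif-driven A3F-eYFP loss in stable HeLa A3F-eYFP/Vif cells seeded overnight beforehand.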
Vif-APOBEC3G blk = Vif-A3G binding inhibition; HeLa A3G-eYFP + Vif (tagged APOBEC3G with the HIV-1 protein that degrades it), YFP fluorescence, overnight; 0.076% of 410,000 active; AID 602310; Q9HC16; Potency, µM (doses to about 46.1 µM), inactives show at the top dose activity, negative = active, actives largely listed as inhibitors; also: potency is read from the fitted curve at half-maximal effect; % is scaled to controls: 0 for no effect and ±100 for the full control effect; nearly all actives have a fitted effect of over 60% in size
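HeLa cells stably expressing Vif and C-terminally eYFP-tagged A3G, seeded overnight at 37 deg C, then exposed to compound by pintool overnight at 37 deg C. Rise in yellow fluorescence (Ex 488/Em 500-530, Acumen) marks blocked Vif-driven A3G degradation.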
Starred values were filed as active, the others as inactive; ? = inconclusive; nt = no result given; [ ] = another dose, or the depositor's remark. In the library only some 0.34% were active in any assay of this set; here they are far more common. Unless noted, calls follow the shape of the dose curve; as a rule, active = well fitted curve in the direction sought with a large enough effect; inconclusive = small, poorly fitted or top-dose-only effect, or another doubt; inactive = no such curve, though single readings can be large; an effect the other way counts as inactive or inconclusive.

Results follow in this order: Epigenetic reg | miR-21 reporter | Vif-A3F inh | Vif-APOBEC3G blk
- COc1ccc(/C=C(/C#N)c2nc(-c3ccc(-c4ccccc4)cc3)cs2)cc1OC
    10µM* | -1% | ? | -5%
- COc1ccc(/C=C(\C#N)c2nc(-c3cc4c(ccc5ccccc54)oc3=O)cs2)cc1O
    13µM* | -11% | -12% | -3%
- CC(C)(C)n1ncc2c(=O)n(Cc3c(F)cc(Cl)cc3F)cnc21
    nt | nt | nt | -5%
- COc1ccc(OC)c(NC(=O)c2nc(SCc3ccccc3F)ncc2Cl)c1
    4% | 4% | 5% | 9%
- N#CCSc1ccccc1NC(=O)COC(=O)CCNC(=O)c1ccc([N+](=O)[O-])cc1
    nt | nt | 22µM* | -15%
- Cc1noc(C)c1C(=O)OCC(=O)Nc1ccccc1SCC#N
    nt | nt | 22µM* | -19%
- O=C(CCNC(=O)c1ccc([N+](=O)[O-])cc1)Nc1ccccc1N1CCCC1
    nt | 0% | -2% | 0%
- CCOC(=O)c1c(NC(=O)c2cc(OCC)c(OCC)c(OCC)c2)sc2c1CCCCC2
    -2% | -6% | -6% | -3%
- Clc1ccc(/C=N/NC2=Nc3cccc4cccc2c34)cc1
    ? | -45% | 13µM* | ?
- C(=N\NC1=Nc2cccc3cccc1c23)/c1ccccc1
    6% | -59% | ? | -5%
- C[n+]1c(/C=C/c2ccc(O)cc2)ccc2ccccc21
    nt | -16% | 9% | 1%
- Cc1cc(/C=C\c2ccc3cc(N(C)C)ccc3[n+]2C)c(C)n1-c1ccccc1
    11%[16.9 µM] | nt | 3.2µM* | 7.1µM*
- CC(CCC(C)[n+]1cccc(Br)c1)[n+]1cccc(Br)c1 (stereo not given)
    nt | nt | nt | 1%
- COc1cc(OC)c(NC(=O)CCCn2nc(C)c3sc4ccccc4c3c2=O)cc1Cl
    -3% | -76% | 7% | -2%
- Cc1onc(-c2c(F)cccc2Cl)c1C(=O)O/N=C(\N)c1ccc([N+](=O)[O-])o1
    -2% | 25% | 5% | 22µM*
- Cc1ccc(CNC(=O)c2c(C)oc3nc(C)nc(N4CCOCC4)c23)cc1
    0% | -5% | 1% | 2%
- COc1ccc(OC)c(NC(=O)Cn2cnc3onc(-c4ccc(Cl)cc4)c3c2=O)c1
    12% | 9% | -9% | 1.3µM*
- O=C(Cn1cnc2onc(-c3ccc(Cl)cc3)c2c1=O)Nc1ccc(F)cc1
    -1% | 4% | -2% | -7%
- Cc1ccc(CNC(=O)Cn2cc(C(=O)c3ccc(Cl)cc3)c(=O)c3ccc(C)nc32)cc1
    6% | 0% | 13µM* | -17%
- CC(C)(C)c1ccc(OCC(=O)Nc2ccc3c4c(cccc24)C(=O)NC3=O)cc1
    4% | 4% | 13µM* | 4%

Results follow in this order: Epigenetic reg | miR-21 reporter | Vif-A3F inh | Vif-APOBEC3G blk
- COc1cccc2cc(-c3nnc(Nc4ccccc4C)s3)c(=O)oc12
    ? | -70% | ? | 0%
- Cc1sc2c(c1C)c(=O)n(-c1ccc(Cl)cc1)c(=O)n2Cc1cc(=O)n2cc(Br)ccc2n1
    1% | -3% | 4% | 2%
- O=C1c2cccc3c([N+](=O)[O-])c(O)cc(c23)C(=O)N1Nc1ccccc1
    3% | 1% | 10µM* | ?
- O=C1c2ccccc2C(=O)N1Nc1ccccc1
    -1% | 5% | -3% | 1%
- CCOCCCNC(=O)C(c1ccc(C)cc1)N(Cc1ccc2c(c1)OCO2)C(=O)c1ccccc1O (stereo not given)
    1% | 20% | 3% | -8%
- CCN1/C(=C\C=C(C(C)=O)C(C)=O)Sc2ccccc21
    1% | -35% | 22µM* | 22µM*
- COC(=O)c1ccccc1SC(CC(=O)c1ccccc1)c1ccc(F)cc1 (stereo not given)
    22µM* | -8% | -6% | -7%
- COc1ccccc1N1CCN(C(=O)CSc2n[nH]c(-c3ccccc3Cl)n2)CC1
    0% | 8% | 2% | 1%
- CC(C)(C)n1ncc2c(=O)n(Cc3cc(Cl)ccc3Cl)cnc21
    nt | nt | nt | 2%
- COC(=O)c1sc2cc([N+](=O)[O-])cc(SCC(C)C)c2c1N
    ? | -2% | 10µM* | 10µM*
- CCOC(=O)c1sc2ncc([N+](=O)[O-])cc2c1N
    -2% | -10% | 11% | -2%
- CCn1c2ccccc2c2cc(NC(=O)c3ccc(=O)oc3)ccc21
    1% | -3% | 11µM* | -22%
- CCn1c2ccccc2c2cc(NC(=O)c3ccc(Br)o3)ccc21
    14µM* | -2% | -13% | ?
- Cc1sc2c(c1C)c(=O)n(-c1ccc(Cl)cc1)c(=O)n2Cc1c(F)cccc1Cl
    ? | 0% | 4% | 2%
- COc1ccc(NC(=O)c2sc3nc(C(F)(F)F)cc(C)c3c2N)cc1OC
    14µM* | 0% | 5.6µM* | -14%
- COc1ccc(OC)c(NC(=O)c2sc3nc(Cc4ccccc4)cc(C(F)(F)F)c3c2N)c1
    -1% | -1% | 10µM* | 0%
- COc1ccc(CNC(=O)c2sc3nc4c(c(C(F)(F)F)c3c2N)CCC4)cc1OC
    -1% | -10% | ? | 1%
- COc1ccc(NC(=O)c2sc3nc(C)c(C(=O)Nc4ccc(C)cc4C)c(-c4ccc(C)o4)c3c2N)cc1
    10% | 1% | ? | -7%
- COC(=O)c1ccc(NC(=O)CCc2c(C)nn(-c3ccc(N4CCOCC4)nn3)c2C)cc1
    1% | -47% | 1% | 1%
- O=[N+]([O-])c1ccc(Oc2cccc3cccnc23)c([N+](=O)[O-])c1
    13µM* | 20% | ? | 10µM*

Abbreviations – A = Epigenetic reg; B = miR-21 reporter; C = Vif-A3F inh; D = Vif-APOBEC3G blk
CCOc1ccc(CNC(=O)c2ccc(NC(=O)c3nsc4ccccc34)cc2)cc1
  A = 10%; B = -70%; C = 0%; D = 10%

CCOc1ccc(CNC(=O)c2ccccc2NC(=O)c2nsc3ccccc23)cc1
  A = 9%; B = -4%; C = 7.9µM*; D = -11%

BrC(=C\c1ccccc1)/C=N/N1CCN(c2ccccn2)CC1
  A = 22µM*; B = -12%; C = 1%; D = 0%

CCOC(=O)c1c(-c2ccc(OC)cc2)csc1/N=C/C1C(=O)CCCC1=O
  A = ?; B = 0%; C = 25µM*; D = ?

COc1ccc2o/c(=N/NC(=O)c3cccs3)c(C(N)=O)cc2c1
  A = 18µM*; B = -38%; C = ?; D = 11µM*

NC(=O)c1cc2ccccc2o/c1=N/NC(=O)c1cccs1
  A = 10%; B = -15%; C = 4%; D = 4%

CCSC1=NSC2=NC(=O)/C(=C\c3coc4ccccc4c3=O)C(=N)N12
  A = 2%; B = -18%; C = 25µM*; D = ?

CC(C)CC1=NN2C(=N)/C(=C\c3coc4ccccc4c3=O)C(=O)N=C2S1
  A = -5%; B = -9%; C = ?; D = ?

OCCCn1c(C2CCCN2c2nc(-c3ccc(Cl)cc3)cs2)nc2cc(Cl)c(N3CCCCC3)cc21 (stereo not given)
  A = nt; B = nt; C = ?; D = -6%

OCCCn1c(C2CCCN2c2nc(-c3ccc(F)cc3)cs2)nc2cc(Cl)c(N3CCCCC3)cc21 (stereo not given)
  A = nt; B = nt; C = 25µM*; D = 1%

COc1ccc(NC(=S)Nc2ncccc2C)cc1OC
  A = -1%; B = -70%; C = 15%; D = -5%

COc1ccc(NC(=S)Nc2ncccc2C)c(OC)c1
  A = -2%; B = -2%; C = 1%; D = 11µM*

Cc1ccc(NC(=O)c2cc3ccccc3oc2=N)cc1
  A = nt; B = -70%; C = 1%; D = 1%

N=c1oc2c3c4c(cc2cc1C(=O)Nc1ccccc1)CCCN4CCC3
  A = 0.28µM*; B = -45%; C = 6%; D = 8%

A draw from above in order of length of the SMILES, falling.
Abbreviations – A = Epigenetic reg; B = miR-21 reporter; C = Vif-A3F inh; D = Vif-APOBEC3G blk
COC(=O)c1ccc(NC(=O)CCc2c(C)nn(-c3ccc(N4CCOCC4)nn3)c2C)cc1
  A = 1%; B = -47%; C = 1%; D = 1%

CCOC(=O)c1c(NC(=O)c2cc(OCC)c(OCC)c(OCC)c2)sc2c1CCCCC2
  A = -2%; B = -6%; C = -6%; D = -3%

COc1ccccc1N1CCN(C(=O)CSc2n[nH]c(-c3ccccc3Cl)n2)CC1
  A = 0%; B = 8%; C = 2%; D = 1%

CCOc1ccc(CNC(=O)c2ccc(NC(=O)c3nsc4ccccc34)cc2)cc1
  A = 10%; B = -70%; C = 0%; D = 10%

CC(C)(C)n1ncc2c(=O)n(Cc3cc(Cl)ccc3Cl)cnc21
  A = nt; B = nt; C = nt; D = 2%

Cc1noc(C)c1C(=O)OCC(=O)Nc1ccccc1SCC#N
  A = nt; B = nt; C = 22µM*; D = -19%
